From patent US6541463B1, “Inhibitors of type 5 and type 3 17β-hydroxysteroid dehydrogenase and methods for their use” (Endorecherche, Inc., priority 1998, dated 2003)

By UniProt entry, the sequences of proteins in these tests, tags left out.
UniProt P42330, whole entry: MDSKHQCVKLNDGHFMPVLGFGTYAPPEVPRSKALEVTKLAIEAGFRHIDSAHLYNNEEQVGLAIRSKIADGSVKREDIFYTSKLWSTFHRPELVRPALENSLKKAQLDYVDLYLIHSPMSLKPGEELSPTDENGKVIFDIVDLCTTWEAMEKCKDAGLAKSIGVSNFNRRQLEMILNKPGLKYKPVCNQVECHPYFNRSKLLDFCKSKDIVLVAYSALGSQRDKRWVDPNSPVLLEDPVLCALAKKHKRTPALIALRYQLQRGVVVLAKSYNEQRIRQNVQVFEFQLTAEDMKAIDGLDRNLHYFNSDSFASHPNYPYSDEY
UniProt P14061, whole entry: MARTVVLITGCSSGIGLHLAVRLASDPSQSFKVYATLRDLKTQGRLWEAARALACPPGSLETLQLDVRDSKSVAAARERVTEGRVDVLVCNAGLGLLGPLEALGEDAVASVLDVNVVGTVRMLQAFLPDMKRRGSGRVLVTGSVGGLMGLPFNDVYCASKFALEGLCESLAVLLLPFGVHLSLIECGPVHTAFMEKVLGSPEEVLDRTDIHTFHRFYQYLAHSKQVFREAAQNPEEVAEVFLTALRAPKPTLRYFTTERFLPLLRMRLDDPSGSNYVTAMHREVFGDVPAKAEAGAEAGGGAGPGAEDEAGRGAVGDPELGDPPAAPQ
UniProt P37059, whole entry: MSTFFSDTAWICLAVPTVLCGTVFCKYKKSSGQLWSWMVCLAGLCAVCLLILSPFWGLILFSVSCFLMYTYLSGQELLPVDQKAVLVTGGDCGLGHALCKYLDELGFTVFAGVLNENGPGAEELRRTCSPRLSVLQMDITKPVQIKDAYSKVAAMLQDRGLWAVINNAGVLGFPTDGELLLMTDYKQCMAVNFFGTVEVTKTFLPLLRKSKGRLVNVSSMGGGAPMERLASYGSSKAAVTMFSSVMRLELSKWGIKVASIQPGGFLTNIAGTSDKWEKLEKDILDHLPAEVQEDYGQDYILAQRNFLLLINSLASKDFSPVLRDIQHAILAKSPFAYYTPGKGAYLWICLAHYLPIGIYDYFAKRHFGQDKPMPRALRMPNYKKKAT

Assays:
[1] = tested on: Shionogi mouse mammary carcinoma cells; experiment: Antiandrogenic activity: inhibition of DHT-induced proliferation of Shionogi cells; type: cell-based
[2] = tested on: ZR-75-1 cells; experiment: Estrogenic activity: stimulation of proliferation of ZR-75-1 cells; type: cell-based, human
[3] = tested on: ZR-75-1 cells; experiment: Antiestrogenic activity: inhibition of E2-induced proliferation of ZR-75-1 cells; set-up: ZR-75-1 Activity, E2 / ZR-75-1 Activity E2 E^−6: unit not given here; conditions: for ZR-75-1 Activity E2 3E^−8: with E2, 3E^−8; for ZR-75-1 Activity E2 E^−6: with E2, E^−6; for ZR-75-1 Activity, E2: E2, E^−8
[4] = tested on: Shionogi mouse mammary carcinoma cells; experiment: Androgenic activity: stimulation of proliferation of Shionogi cells
[5] = biological target: human type 5 17β-hydroxysteroid dehydrogenase (Homo sapiens, UniProt P42330); experiment: Inhibition of human type 5 17β-HSD activity in transfected 293 cells; type: cell-based
[6] = biological target: human type 1 17β-hydroxysteroid dehydrogenase (Homo sapiens, UniProt P14061); experiment: Enzymatic assay for type 1 17β-HSD; conditions: value in square brackets
[7] = biological target: human type 2 17β-hydroxysteroid dehydrogenase (Homo sapiens, UniProt P37059); experiment: Enzymatic assay for type 2 17β-HSD; conditions: at 3.10^-8M
[8] = In vivo assay of oral bioavailability (plasma AUC 0-7 h by LCMS/MS); conditions: AUC 0-7h
[9] = read-out: Antiandrogenic Activity Shionogi DHT [IC50 (nM)], with DHT, value in square brackets on second line
[10] = read-out: Inhibition Type V 17B-HSD IC50
[11] = read-out: Antiandrogenic Activity Shionogi, DHT [IC50], DHT
[12] = read-out: Inhibition Type V 17β-HSD IC50

| Structure (SMILES) | IC50 [1, 9] [nM] | Antiandrogenic Activity Shionogi DHT E^−6 ([1]; with DHT, E^−6) | Antiandrogenic Activity Shionogi DHT E^−7 ([1]; with DHT, E^−7) | Androgenic Activity Shionogi Basal E^−6 ([4]; E^−6) | Androgenic Activity Shionogi Basal E^−7 ([4]; E^−7) | IC50 [5, 10] [nM] | Inhibition Type 1 17B-HSD Activity [% Inh. at 3 · 10^−6 M] [6] | other results |
| --- | --- | --- | --- | --- | --- | --- | --- | --- |
| CC(=O)O[C@]1(C)C(=O)CCC2C3C=C(C)C4=CC(=O)CC[C@]4(C)C3CC[C@@]21C (some centres unmarked) | 82 | −128 | −84 | −33 | −27 | 38.5 | [13] % | ZR-75-1 Activity Basal E^−6 ([2]; E^−6): −12; ZR-75-1 Activity Basal E^−8 ([2]; E^−8): −10; ZR-75-1 Activity E2 3E^−8 [3]: −23; ZR-75-1 Activity E2 E^−6 [3]: −4 |
| CCCCCC(=O)O[C@]1(C)C(=O)CCC2C3C=C(C)C4=CC(=O)CC[C@]4(C)C3CC[C@@]21C (some centres unmarked) | 30 | −109 | −80 | −31 | −29 | 3 | [66] % | – |
| CC(=O)[C@@]1(OC(=O)CCCCCl)CC[C@H]2[C@@H]3C=C(C)C4=CC(=O)CC[C@]4(C)[C@H]3CC[C@@]21C | – | – | – | – | – | – | – | Antiandrogenic Activity Shionogi, DHT ([1]; DHT, E^−6): −146; Antiandrogenic Activity Shionogi, DHT ([1]; DHT, E^−7): −123; IC50 [1, 11]: 9.3 nM; ZR-75-1 Activity, Basal ([2]; E^−6): −10; ZR-75-1 Activity, Basal ([2]; E^−8): 0; ZR-75-1 Activity, E2 [3]: −62; Androgenic Activity Shionogi, Basal ([4]; E^−6): −15; Androgenic Activity Shionogi, Basal ([4]; E^−7): −24; IC50 [5, 12]: 3 nM; Inhibition Type 2 17β-HSD Activity [% Inh.] [7]: [13] %; Oral Bioavailability AUC 0-7h [8]: 10 ± 2.5 ng·h/mL |
| C[C@]12CCC3C4CCC(=O)C=C4C=CC3C1CC1(CCCCC1)C2=O (some centres unmarked) | – | 0 | 0 | −20 | 4 | 36 | [32] % | – |
| CC1=CC2C(CC[C@@]3(C)C2CCC(=O)[C@@]3(C)OC(=O)Cc2ccccc2)[C@@]2(C)CCC(=O)C=C12 (some centres unmarked) | – | −100 | −13 | −17 | 0 | 14.6 | [56] % | ZR-75-1 Activity Basal E^−6 ([2]; E^−6): 0; ZR-75-1 Activity Basal E^−8 ([2]; E^−8): 0; ZR-75-1 Activity E2 3E^−8 [3]: −34; ZR-75-1 Activity E2 E^−6 [3]: −4 |
| C[C@H]1CC(=O)C=C2C=CC3C(CC[C@]4(C)C(=O)C5(CCCC5)CC34)[C@]21C (some centres unmarked) | – | −34 | 0 | −24 | 0 | 35 | [32] % | – |
| CC1=CC2C(CC[C@@]3(C)C2CCC(=O)[C@@]3(C)OC(=O)CCCCCCl)[C@@]2(C)CCC(=O)C=C12 (some centres unmarked) | – | −114 | −84 | −29 | −12 | 6.4 | [13] % | – |
| CCCCC(=O)O[C@]1(C)C(=O)CC[C@H]2[C@@H]3C=C(C)C4=CC(=O)CC[C@]4(C)[C@H]3CC[C@@]21C | 19 | −104 | −92 | −14 | −28 | 8.9 | [70] % | – |
| CC(=O)[C@@]1(OC(=O)CCCCBr)CCC2C3C=C(C)C4=CC(=O)CC[C@]4(C)C3CC[C@@]21C (some centres unmarked) | – | – | – | – | – | – | – | Antiandrogenic Activity Shionogi, DHT ([1]; DHT, E^−6): −121; Antiandrogenic Activity Shionogi, DHT ([1]; DHT, E^−7): −70; IC50 [1, 11]: 33 nM; ZR-75-1 Activity, Basal ([2]; E^−6): 196; ZR-75-1 Activity, Basal ([2]; E^−8): 197; ZR-75-1 Activity, E2 [3]: 0; Androgenic Activity Shionogi, Basal ([4]; E^−6): −54; Androgenic Activity Shionogi, Basal ([4]; E^−7): −17; IC50 [5, 12]: 4.6 nM; Inhibition Type 2 17β-HSD Activity [% Inh.] [7]: [28] %; Oral Bioavailability AUC 0-7h [8]: 4.1 ± 1.4 ng·h/mL |
| CC1=CC2C(CC[C@@]3(C)C2CCC(=O)[C@@]3(C)OC(=O)CCCCF)[C@@]2(C)CCC(=O)C=C12 (some centres unmarked) | – | −109 | −98 | −32 | −30 | 6.5 | [48] % | – |
| CCC(=O)O[C@]1(C)C(=O)CCC2C3C=C(C)C4=CC(=O)CC[C@]4(C)C3CC[C@@]21C (some centres unmarked) | 15 | −105 | −88 | −21 | −25 | 11 | [38] % | – |
| CC(=O)[C@@]1(OC(=O)CCCCCCl)CCC2C3C=C(C)C4=CC(=O)CC[C@]4(C)C3CC[C@@]21C (some centres unmarked) | – | – | – | – | – | – | – | Antiandrogenic Activity Shionogi, DHT ([1]; DHT, E^−6): −111; Antiandrogenic Activity Shionogi, DHT ([1]; DHT, E^−7): −82; IC50 [1, 11]: 61 nM; ZR-75-1 Activity, Basal ([2]; E^−6): 182; ZR-75-1 Activity, Basal ([2]; E^−8): 98; ZR-75-1 Activity, E2 [3]: 0; Androgenic Activity Shionogi, Basal ([4]; E^−6): −30; Androgenic Activity Shionogi, Basal ([4]; E^−7): −6; IC50 [5, 12]: 5.3 nM; Inhibition Type 2 17β-HSD Activity [% Inh.] [7]: [14] %; Oral Bioavailability AUC 0-7h [8]: 4 ± 1.3 ng·h/mL |
| C[C@]12CCC(=O)C=C1C=CC1C2CC[C@]2(C)C(=O)C3(CCCCC3)CC12 (some centres unmarked) | – | 24 | 0 | 48 | 22 | 66 | [27] % | ZR-75-1 Activity Basal E^−6 ([2]; E^−6): 0; ZR-75-1 Activity Basal E^−8 ([2]; E^−8): 0; ZR-75-1 Activity E2 3E^−8 [3]: 0; ZR-75-1 Activity E2 E^−6 [3]: 0 |
| CC1=CC2C(CC[C@@]3(C)C2CCC(=O)[C@@]3(C)OC(=O)CCCCCF)[C@@]2(C)CCC(=O)C=C12 (some centres unmarked) | – | −109 | −88 | −37 | −28 | 3.4 | [21] % | – |
| CC1=CC2C(CC[C@@]3(C)C2CCC(=O)[C@@]3(C)OC(=O)CCCCCl)[C@@]2(C)CCC(=O)C=C12 (some centres unmarked) | – | −110 | −99 | −36 | −29 | 2.6 | [24] % | – |
| CC1=CC2C(CC[C@@]3(C)C2CCC(=O)[C@@]3(C)OC(=O)CCCCCBr)[C@@]2(C)CCC(=O)C=C12 (some centres unmarked) | 40 | −108 | −48 | −25 | −25 | 4 | [63] % | – |

Read-outs that look alike come from different tables or passages of the source.
